Among the data in patent US9914731B2, “Pyrazolo[1,5-a]pyridine derivatives and methods of their use” (Ignyta, Inc., priority 2013, dated 2018) are IC50 values, retold here.

Amino acid sequences for entries named in this document (tags omitted). Residues count along the entry.
UniProt P30530, 26-894: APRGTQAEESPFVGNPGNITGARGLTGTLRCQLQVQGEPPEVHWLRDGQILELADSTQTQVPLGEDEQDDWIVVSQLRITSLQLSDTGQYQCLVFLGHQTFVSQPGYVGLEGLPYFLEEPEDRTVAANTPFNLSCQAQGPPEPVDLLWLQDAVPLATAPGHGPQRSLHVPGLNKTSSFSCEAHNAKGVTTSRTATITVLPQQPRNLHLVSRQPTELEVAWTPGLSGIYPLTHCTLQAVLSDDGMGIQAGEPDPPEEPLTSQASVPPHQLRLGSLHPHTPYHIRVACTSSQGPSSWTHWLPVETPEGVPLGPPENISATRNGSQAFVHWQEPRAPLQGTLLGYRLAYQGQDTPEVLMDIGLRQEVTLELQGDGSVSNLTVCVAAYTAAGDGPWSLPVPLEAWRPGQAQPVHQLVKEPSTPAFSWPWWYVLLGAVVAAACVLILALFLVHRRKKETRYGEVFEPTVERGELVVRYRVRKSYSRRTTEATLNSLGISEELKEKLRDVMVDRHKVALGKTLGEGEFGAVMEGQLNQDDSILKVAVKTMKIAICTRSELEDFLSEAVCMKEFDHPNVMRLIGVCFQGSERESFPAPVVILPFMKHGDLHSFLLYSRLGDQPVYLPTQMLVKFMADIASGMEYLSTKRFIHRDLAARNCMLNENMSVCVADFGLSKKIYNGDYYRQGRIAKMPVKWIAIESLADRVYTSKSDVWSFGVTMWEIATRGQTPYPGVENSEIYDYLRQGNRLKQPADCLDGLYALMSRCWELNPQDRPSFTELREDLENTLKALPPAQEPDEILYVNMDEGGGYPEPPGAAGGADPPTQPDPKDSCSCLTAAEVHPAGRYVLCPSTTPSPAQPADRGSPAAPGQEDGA

This assay addresses recombinant human baculovirus-expressed AXL (Homo sapiens (Human), UniProt P30530). The experiment in a line: AXL kinase assay (HTRF KinEASE). It is filed as biochemical. The conditions noted are these: average of two or more determinations.

With `CCOc1ccn(-c2ccc(F)cc2)c(=O)c1C(=O)Nc1ccc(Oc2cc(-c3cn(C)cn3)cn3nccc23)c(F)c1` [Example 112, 4-Ethoxy-1-(4-fluoro-phenyl)-2-oxo-1,2-dihydro-pyridine-3-carboxylic acid {3-fluoro-4-[6-(1-methyl-1H-imidazol-4-yl)-pyrazolo[1,5-a]pyridin-4-yloxy]-phenyl}-amide], the IC50 was < 10 nM.

Usually IC50 stands for the concentration at which inhibition is half-maximal.
